Experimental data published in ChEMBL document CHEMBL3785048, “Effects of polar receptor agonists designed for the periphery on ATP-induced Ca2+release from keratinocytes” (Medchemcomm, 2016).
Active and inactive are the calls of the source. The calls are words filed in the database; no cut-off is given here.

Protein sequences, listed by entry. Tags and fused reporters are not part of them. Lines headed by an entry give the natural chain unless they say otherwise; changes in a name come on top.
UniProt P41145: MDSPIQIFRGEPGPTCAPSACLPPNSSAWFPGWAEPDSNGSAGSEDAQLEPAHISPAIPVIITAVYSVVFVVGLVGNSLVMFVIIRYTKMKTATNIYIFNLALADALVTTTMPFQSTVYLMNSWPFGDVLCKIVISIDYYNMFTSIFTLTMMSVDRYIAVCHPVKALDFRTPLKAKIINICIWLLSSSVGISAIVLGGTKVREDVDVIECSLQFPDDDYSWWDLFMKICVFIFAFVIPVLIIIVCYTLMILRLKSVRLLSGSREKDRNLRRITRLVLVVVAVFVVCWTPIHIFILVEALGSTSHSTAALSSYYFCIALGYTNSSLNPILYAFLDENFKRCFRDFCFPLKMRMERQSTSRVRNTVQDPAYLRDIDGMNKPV

Biological target: Kappa-type opioid receptor (Homo sapiens, UniProt P41145)
Test: Agonist activity at kappa opioid receptor in ATP stimulated human HaCaT cells assessed as reduction in intracellular Ca2+ release at 1 uM after 45 mins by FURA-2AM dye based luminescence spectrophotometry method
Assay type: functional, cell-based

## O=C(Cc1ccc(Cl)c(Cl)c1)N1CCNC2CCCC(N3CCCC3)C21 (stereo unspecified)
  inhibition: Active
